The values below are quoted from earlier work in patent US10851223B2, “Use of a cyclodextrin polycondensate or a composition comprising such a polycondensate, as a capturing agent” (BIOSTART, priority 2016, dated 2020).

For this data set the following is noted: octanol/water.

On to `NC(=O)N1c2ccccc2C=Cc2ccccc21` [Carbamazepine, reference compound], for which the “Log Kow” value was 2.45.
